Source: patent US20190079094A1, “SUBCELLULAR LOCALIZATION OF TARGET ANALYTES” (Beckman Coulter, Inc., priority 2016, published 2019)

System: STATS nuclear translocation in Tregs and other T-cell subsets
Assay: IL2 stimulation, nuclear translocation of STATS in T-cell subsets
Type: cell-based
Excerpt: FIG. 10. Analysis of STATS Nuclear Translocation in Tregs Following IL2 Stimulation. A) The gating of different CD25 subsets in the CD4 and CD8 T-cell populations. B) Analysis of the expression of FoxP3 in the different T-cell subsets gated in part A. In this chart, FoxP3 can be seen to be predominantly in the nucleus of the CD4+CD25hi population, which is expected since this is the Treg population. C) The nuclear translocation of STATS following IL2 stimulation in the different CD4 T-cell populations. IL2 stimulation induced maximal STATS translocation most rapidly in the Treg population, peaking by 2.5 min. The remaining CD4 T cells peaked by 10 min, with the CD25+population more strongly stimulated than the CD25low population. D) The nuclear translocation of STATS in the different CD8 T-cell populations. […] The antibody used for STATS staining in this experiment was directed to the whole STATS protein, not to a phosphorylation site.
The protocol for processing whole blood samples is as follows (see FIG. 1 for a workflow): 1) The sample is first mixed 1:1 with fixative, vortexed, and then incubated for 10 minutes. An extra control tube is included for each buffer, which is stained with all antibodies except for the specific signaling or target antibodies being tested in order to subtract the background signal. […] 6) Once stained, the samples are again washed 2× with PBS or wash buffer, resuspended in PBS+0.5% PFA, and read on a flow cytometer.
After data acquisition, the samples are gated, compensated, and analyzed as standard flow cytometry samples. […] For example, if staining for the subcellular distribution of FoxP3, where the Background MFIs for the Cytoplasm and Whole Cell are 1.5 and the raw FoxP3 signal is 3.5 and 31.5 for the Cytoplasm and Whole Cell, respectively, then the Cytoplasmic MFI would be calculated to be 2 (i.e., 3.5 (raw)−1.5 (background)=2) and the Nuclear MFI would be calculated to be 28 (i.e., 31.5 (raw)−1.5 (background)−2 (Cytoplasm)=28). […]

Substance: IL2: cytokine used to stimulate STAT5 nuclear translocation in T cells
- time of peak STATS nuclear translocation (CD4+CD25+ cells): 10 min
- time of peak STATS nuclear translocation (CD8+CD25+ cells): ≤ 10 min
- time of peak STATS nuclear translocation (remaining CD4 T cells (CD25+ and CD25low)): ≤ 10 min
